Values of other authors in US20120108632A1, “[…] INHIBITORS FOR OCULAR HYPERTENSION CONTROL AND THE TREATMENT OF GLAUCOMA” (ALCON RESEARCH, LTD., priority 2006, published 2012).

Amino acid sequences for entries named in this document (tags omitted).
UniProt P49356, whole entry: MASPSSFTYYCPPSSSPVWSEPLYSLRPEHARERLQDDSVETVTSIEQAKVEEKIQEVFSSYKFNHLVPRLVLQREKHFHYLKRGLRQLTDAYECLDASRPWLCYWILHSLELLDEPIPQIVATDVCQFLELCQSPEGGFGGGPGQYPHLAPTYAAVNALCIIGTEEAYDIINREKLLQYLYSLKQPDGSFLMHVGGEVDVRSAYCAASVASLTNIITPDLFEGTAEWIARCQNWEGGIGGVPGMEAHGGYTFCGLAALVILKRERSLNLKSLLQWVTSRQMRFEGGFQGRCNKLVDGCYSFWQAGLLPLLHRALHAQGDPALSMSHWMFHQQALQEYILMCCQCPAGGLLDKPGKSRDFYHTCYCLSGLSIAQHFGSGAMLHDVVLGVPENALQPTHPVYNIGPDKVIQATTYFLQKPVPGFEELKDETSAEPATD

Molecular target: Ftase (Homo sapiens, UniProt P49356)
Settings: read-out: Ftase IC50; cited from earlier work

Cc1nn(C)c(C)c1C(=O)N1CCN(Cc2nc3ccccc3n2CC(C)(C)C)CC1
IC50: 12 nM
